System: co-culture of HS-5 and Saos-2 cells
Assay: Spheroid formation and live-dead assay in co-culture of HS-5 and Saos-2 cells
Assay type: cell-based
Settings: treated for 48 h; 1P:2 300 μM, ratio 1:1

With NapFFpYGGaa [1P] the “morphology of co-cultured HS-5 and Saos-2 cells” value was “remain a 2D cell sheet”.
